Results: patent US7825129B2, “Thieno[2,3-c] isoquinolines for use as inhibitors of PARP” (priority 2000, dated 2010)

The chains behind the UniProt entries cited, without tags or fusion partners.
UniProt P18493, whole entry: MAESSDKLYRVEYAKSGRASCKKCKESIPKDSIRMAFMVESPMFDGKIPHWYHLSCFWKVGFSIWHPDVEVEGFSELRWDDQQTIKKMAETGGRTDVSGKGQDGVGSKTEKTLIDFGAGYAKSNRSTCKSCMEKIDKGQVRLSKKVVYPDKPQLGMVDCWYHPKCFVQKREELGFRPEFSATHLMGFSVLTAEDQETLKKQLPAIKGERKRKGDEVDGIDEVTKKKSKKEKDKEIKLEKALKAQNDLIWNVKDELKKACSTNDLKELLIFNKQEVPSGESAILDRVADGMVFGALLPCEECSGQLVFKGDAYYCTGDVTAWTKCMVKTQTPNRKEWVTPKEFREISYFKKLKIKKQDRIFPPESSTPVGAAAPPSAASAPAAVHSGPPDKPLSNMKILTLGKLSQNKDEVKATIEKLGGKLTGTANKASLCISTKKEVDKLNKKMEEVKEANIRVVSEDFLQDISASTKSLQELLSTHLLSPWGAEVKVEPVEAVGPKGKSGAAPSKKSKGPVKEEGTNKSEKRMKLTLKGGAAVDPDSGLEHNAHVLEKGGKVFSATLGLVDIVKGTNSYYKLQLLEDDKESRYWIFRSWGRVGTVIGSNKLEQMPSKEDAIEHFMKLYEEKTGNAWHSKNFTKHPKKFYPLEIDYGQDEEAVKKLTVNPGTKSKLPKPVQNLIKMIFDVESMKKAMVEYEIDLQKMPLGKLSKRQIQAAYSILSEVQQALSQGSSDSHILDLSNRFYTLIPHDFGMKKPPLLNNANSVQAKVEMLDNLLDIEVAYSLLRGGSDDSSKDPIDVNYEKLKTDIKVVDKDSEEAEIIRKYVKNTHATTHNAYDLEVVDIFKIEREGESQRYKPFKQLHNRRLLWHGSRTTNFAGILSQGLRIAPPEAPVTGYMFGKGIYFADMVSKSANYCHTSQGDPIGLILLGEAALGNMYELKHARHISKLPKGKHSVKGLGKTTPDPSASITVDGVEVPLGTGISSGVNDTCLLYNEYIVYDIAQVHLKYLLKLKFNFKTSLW

Molecular target: poly(ADP-ribose) polymerase (PARP) (Bos taurus, UniProt P18493)
Experiment: Activity against purified PARP, [3H]NAD incorporation
Format: biochemical
Conditions: read-out: IC50 of PARP inhibitors tested on enzyme prepared from bovine thymus; purified PARP from foetal calf thymus, 37° C., 30 mins

IC50: 10 µM
SMILES: O=C1NCCc2c(OCCCCN3CCCCC3)cccc21
